The test system of this experiment is RPMI8226 MM cells. Nature of the experiment: XTT viability of RPMI8226 cells, cannabinoids in combination with anti-MM drugs. Particulars: 48 hours; for viability of RPMI8226 cells, in combination with BTZ: as compared to BTZ alone (also CBD and THC alone); for viability of RPMI8226 cells, in combination with CFZ: as compared to CFZ alone (also CBD and THC alone); for viability of RPMI8226 cells, in combination with DEX: as compared to DEX alone; for viability of RPMI8226 cells, in combination with DOXO: as compared to DOXO or CBD: THC (1:1) alone; for viability of RPMI8226 cells, in combination with MEL: as compared to DOXO, MEL or CBD: THC (1:1) alone. A general note: Formazan colour is commonly taken as a measure of viable cells.

As to `C=C(C)[C@@H]1CCC(C)=C[C@H]1c1c(O)cc(CCCCC)cc1O` [CBD, cannabidiol], the “viability of RPMI8226 cells, in combination with BTZ” value is given as “decreased significantly”; the “viability of RPMI8226 cells, in combination with CFZ” value is on record as “decreased significantly”; the “viability of RPMI8226 cells, in combination with DEX” value is “not increased their toxicity effect”; the “viability of RPMI8226 cells, in combination with DOXO” value is “no increased toxicity”. The “viability of RPMI8226 cells, in combination with MEL” value is reported as “no increased toxicity”.
As to `CCCCCc1cc(O)c2c(c1)OC(C)(C)[C@@H]1CCC(C)=C[C@@H]21` [THC, Tetrahydrocannabinol], the “viability of RPMI8226 cells, in combination with BTZ” value is “no observable effect”; the “viability of RPMI8226 cells, in combination with CFZ” value was “no observable effect”; the “viability of RPMI8226 cells, in combination with DEX” value is on record as “not increased their toxicity effect”; the “viability of RPMI8226 cells, in combination with DOXO” value is on record as “no increased toxicity”. For the same compound, the “viability of RPMI8226 cells, in combination with MEL” value is “no increased toxicity”.

(Values after patent publication US20180185324A1, “NOVEL CANNABINOID COMBINATION THERAPIES FOR MULTIPLE MYELOMA (MM)” (ONE WORLD CANNABIS LTD, priority 2015, published 2018).)
